US10202345B2, “Substituted azaspiro(4.5)decane derivatives” (priority 2014, dated 2019)

The chains behind the UniProt entries cited, without tags or fusion partners. Where a name states a change or a piece, a line headed by the entry shows the natural chain unless it says otherwise.
UniProt P35372, whole entry, looked up: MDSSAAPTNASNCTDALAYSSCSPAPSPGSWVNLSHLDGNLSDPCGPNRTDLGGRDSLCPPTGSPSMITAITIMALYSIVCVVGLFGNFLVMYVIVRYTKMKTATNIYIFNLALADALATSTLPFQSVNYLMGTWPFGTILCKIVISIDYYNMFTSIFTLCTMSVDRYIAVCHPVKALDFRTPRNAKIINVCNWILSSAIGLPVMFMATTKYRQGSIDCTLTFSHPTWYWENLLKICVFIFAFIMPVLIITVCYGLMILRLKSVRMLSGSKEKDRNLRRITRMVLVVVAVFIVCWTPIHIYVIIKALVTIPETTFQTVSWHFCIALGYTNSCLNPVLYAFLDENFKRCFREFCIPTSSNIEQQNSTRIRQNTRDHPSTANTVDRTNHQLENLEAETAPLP
UniProt P41146: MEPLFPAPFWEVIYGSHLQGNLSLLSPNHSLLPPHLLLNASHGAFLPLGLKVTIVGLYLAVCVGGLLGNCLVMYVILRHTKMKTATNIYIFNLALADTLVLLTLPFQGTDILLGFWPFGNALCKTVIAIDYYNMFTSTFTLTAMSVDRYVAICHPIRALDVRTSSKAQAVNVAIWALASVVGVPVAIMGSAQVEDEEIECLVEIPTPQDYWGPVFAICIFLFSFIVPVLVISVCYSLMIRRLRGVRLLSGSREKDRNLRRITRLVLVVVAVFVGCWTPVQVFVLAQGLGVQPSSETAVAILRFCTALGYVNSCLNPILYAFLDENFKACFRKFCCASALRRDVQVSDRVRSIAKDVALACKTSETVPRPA

Experiments:
[1] = target: human μ opiate receptor (Homo sapiens, UniProt P35372); assay: μ opiate receptor binding assay with [3H]-naloxone (WGA-SPA beads); settings: for Ki: read-out: Ki (μ) mean [μm], mean; for % inhibition (μ) [1 μM]: test concentration 1 μM
[2] = target: ORL1 receptor (Homo sapiens, UniProt P41146); assay: ORL1 receptor binding assay with 3H-nociceptin/orphanin FQ (WGA-SPA beads); settings: for Ki: read-out: Ki (ORL1) mean, mean; for % inhibition (ORL1) [1 μM]: test concentration 1 μM

Row | Molecule | Ki [1] [nM] | % inhibition (μ) [1 μM] [1] [%] | Ki [2] [nM] | % inhibition (ORL1) [1 μM] [2] [%] | % inhibition (μ) [1 μM] ([1]; 1 µM) [%] | % inhibition (ORL1) [1 μM] ([2]; 1 µM) [%]
1 | CN1CCC2(CCC(c3cccs3)(N(C)C)CC2)C1 (centres unmarked) | 44 | 85 | 80 | 70 | – | –
2 | CN(C)C1(c2ccccc2)CCC2(CCN(C(=O)CC3CCOCC3)C2)CC1 (centres unmarked) | 1.9 | 95 | 10 | 92 | – | –
3 | CN(C)C1(c2cccs2)CCC2(CCN(C(=O)C3(C#N)CC3)C2)CC1 (centres unmarked) | 53.5 | 93.5 | 155 | 52.67 | – | –
4 | CN(C)C1(c2ccc(Cl)s2)CCC2(CCNC2=O)CC1 (centres unmarked) | 2550 | 31.5 | – | 15 | – | –
5 | CCCCC1(N(C)C)CCC2(CCN(C(=O)CC3CCC3)C2)CC1 (centres unmarked) | 13.5 | 99 | 43 | 77 | – | –
6 | CCOC(C)CN1CC2(CCC(c3cccs3)(N(C)C)CC2)CC1=O (centres unmarked) | 5.2 | 101 | 2.1 | 95.5 | – | –
7 | CN(C)C1(c2cccs2)CCC2(CCN(CCC(C)(C)C#N)C2)CC1 (centres unmarked) | 1.2 | 100 | 8.75 | 90.5 | – | –
8 | COC1(C(=O)N2CCC3(CCC(c4ccccc4)(N(C)C)CC3)C2)CCC1 (centres unmarked) | 19.5 | 96 | 54.5 | 66.5 | – | –
9 | CN(C)C1(C2CCCC2)CCC2(CC1)CC(=O)N(CCC1(C#N)CC1)C2 (centres unmarked) | 66 | 95 | 115 | 59.5 | – | –
10 | COC(C)CCN1CC2(CCC(c3cccs3)(N(C)C)CC2)CC1=O (centres unmarked) | 1.5 | 99 | 2.7 | 92.5 | – | –
11 | CN1CCC2(CCC(c3cccs3)(N(C)C)CC2)C1=O (centres unmarked) | 710 | 34 | – | 30 | – | –
12 | CN(C)C1(C2CCCC2)CCC2(CC1)CC(=O)N(CCC1(C#N)CCC1)C2 (centres unmarked) | 5.65 | 97.33 | 64 | 70.5 | – | –
13 | COCC1(C(=O)N2CCC3(CCC(c4ccc(Cl)s4)(N(C)C)CC3)C2)CC1 (centres unmarked) | 11.5 | 97.5 | 355 | 37 | – | –
14 | COC(C)(C)CCN1CC2(CCC(c3ccc(C)s3)(N(C)C)CC2)CC1=O (centres unmarked) | 1.4 | 101 | 3.5 | 93.5 | – | –
15 | CCCCN1CCC2(CCC(C3CCCC3)(N(C)C)CC2)C1 (centres unmarked) | 9.6 | 99.5 | 19 | 85 | – | –
16 | CCCC(=O)N1CCC2(CCC(c3cccs3)(N3CCC3)CC2)C1 (centres unmarked) | 640 | 54 | 910 | 21.5 | – | –

Row | Molecule | Ki [1] [nM] | % inhibition (μ) [1 μM] [1] [%] | Ki [2] [nM] | % inhibition (ORL1) [1 μM] [2] [%] | % inhibition (μ) [1 μM] ([1]; 1 µM) [%] | % inhibition (ORL1) [1 μM] ([2]; 1 µM) [%]
17 | CN(C)C1(c2ccccc2)CCC2(CCN(C(=O)CC(C)(C)C#N)C2)CC1 (centres unmarked) | 3.1 | 97.5 | 2.85 | 97.5 | – | –
18 | CN(C)C1(c2ccccc2)CCC2(CCN(CC(C)(C)O)C2)CC1 (centres unmarked) | 44.5 | 87 | 25 | 66 | – | –
19 | CN(C)C1(c2cccs2)CCC2(CCN(C(=O)CCC3(C#N)CC3)C2)CC1 (centres unmarked) | 1.25 | 99 | 1.45 | 95 | – | –
20 | CN(C)C1(C2CCCC2)CCC2(CC1)CC(=O)N(CC1COC1)C2 (centres unmarked) | 98.5 | 74.5 | 255 | 26 | – | –
21 | COCCN1CC2(CCC(c3ccccc3)(N(C)C)CC2)CC1=O (centres unmarked) | 13 | 95 | 8.4 | 88 | – | –
22 | CN(C)C1(c2cccs2)CCC2(CCN(CC3CC3)C2)CC1 (centres unmarked) | 8.95 | 98.5 | 14.5 | 92.33 | – | –
23 | CN(C)C1(C2CCCC2)CCC2(CCN(CCC3(C#N)CCC3)C2)CC1 (centres unmarked) | 12.3 | 99 | 93 | 76.5 | – | –
24 | CCCC(=O)N1CCC2(CCC(c3ccccc3)(N(C)C)CC2)C1 (single isomer, unassigned) | 200 | 70.5 | 150 | 49 | – | –
25 | (8-Benzyl-3-butyl-3-azaspiro[4.5]decan-8-yl)-dimethylamine [11] | 34 | – | 160 | – | 71.5 | 43.5
26 | CN(C)C1(c2cccs2)CCC2(CCN(CCC3CCOC3)C2)CC1 (centres unmarked) | 1.5 | 100 | 1.13 | 94 | – | –
27 | CN(C)C1(C2CCCC2)CCC2(CC1)CC(=O)N(CC1CCCC1)C2 (centres unmarked) | 1.4 | 99 | 7.9 | 88.5 | – | –
28 | COCC(C)(C)C(=O)N1CCC2(CCC(c3ccc(C)s3)(N(C)C)CC2)C1 (centres unmarked) | 2.25 | 98.5 | 48 | 57.5 | – | –
29 | COC(C)(C)C(=O)N1CCC2(CCC(c3cccs3)(N(C)C)CC2)C1 (centres unmarked) | 36.5 | 90.5 | 82.5 | 76 | – | –
30 | CNC1(c2ccccc2)CCC2(CCN(C(=O)CC3CCC3)C2)CC1 (centres unmarked) | 1.3 | 100.5 | 6.05 | 92.5 | – | –
31 | COCC(C)(C)C(=O)N1CCC2(CCC(c3ccccc3)(N(C)C)CC2)C1 (centres unmarked) | 6.35 | 97.5 | 16.9 | 79 | – | –
